Source: PubChem BioAssay AID651635 (National Center for Advancing Translational Sciences (NCATS), 2012)
Several values for one entry are separate records, joined by “and”; a condition that tells them apart may be missing. Identical values can stand only once. Only a part is listed here, and it is no random draw. Some tests of the compounds listed are not included; inactive here does not mean inactive elsewhere. Results filed as inconclusive are left out. Activity calls are given as the source filed them. Calls follow the shape of the dose curve; as a rule, active = well fitted cell-killing curve with a large enough effect; inconclusive = small, poorly fitted or top-dose-only effect, or effect the other way; inactive = no such curve, though single readings can be large or run the other way.

Assay: Viability Counterscreen for Primary qHTS for Inhibitors of ATXN expression; also: nearly all actives have a fitted effect of over 40% in size
Settings: S2 cells (HEK-293 line with an ATXN2-luciferase reporter) viability, CellTiter-Fluor protease fluorescence, 24 h; at 56.7 µM (top of the series)

SMILES	activity change, negative = cytotoxicity
CN(C)C1CCCC1OC(=O)C(O)(c1ccccc1)c1ccccc1 (stereo unspecified)	inactive: -31.6%
CN(C)c1ccc(C(=O)NCC2(N(C)C)CCCCC2)cc1	inactive: -14.7%
CN(C)C1(CNC(=O)c2ccccc2[N+](=O)[O-])CCCCC1	inactive: 7.46%
Cc1ccccc1C(=O)NCC1(N2CCCCC2)CCCCC1	inactive: -37.6%
CCCCOc1ccccc1C(=O)NCC1(N(C)C)CCCCC1	inactive: -20.3%
O=C(NCC1(N2CCCCC2)CCCCC1)c1cc(F)c(F)cc1Cl	inactive: 30.7%
C=CCN1CCN(CCOC(=O)C(O)(c2ccccc2)c2ccccc2)CC1	inactive: -7.75%
CCOc1cccc(C(=O)NCC2(N(C)C)CCCCC2)c1	inactive: -12%
COc1ccc(C(=O)NCC2(N(C)C)CCCCC2)cc1	inactive: -17.3%
O=C(NCC1(N2CCCCC2)CCCCC1)c1cccc(Br)c1	inactive: -34.2%
Cc1cc(C(=O)NCC2(N3CCCCC3)CCCCC2)ccc1[N+](=O)[O-]	inactive: -16.8%
CCN1CCCC(OC(=O)C2(O)c3ccccc3C=Cc3ccccc32)C1 (stereo unspecified)	inactive: -11.3%
O=C(NCC1(N2CCCCC2)CCCCC1)c1cc([N+](=O)[O-])ccc1Cl	inactive: -17.2%
CN1[C@@H]2CC[C@H]1CC(OC(=O)C(O)(c1ccccc1)c1ccccc1)C2 (stereo partly specified)	inactive: -7.72%
COc1cc(SC)ccc1C(=O)NCC1(N(C)C)CCCCC1	inactive: -8.41%
CCN(CC)CC(C)C(C)OC(=O)C(O)(c1ccccc1)c1ccccc1 (stereo unspecified)	inactive: -16.5%
CN(C)C1(CNC(=O)c2cccc(Cl)c2)CCCCC1	inactive: -18.3%
CC(C)N1C(=O)CC2(CCN(CCOC(=O)C(O)(c3ccccc3)c3ccccc3)CC2)C1=O	inactive: -18.8%

SMILES	activity change, negative = cytotoxicity
Cc1ccc(C(=O)NCC2(N3CCCCC3)CCCCC2)cc1	inactive: -20.5%
CN(C)C1(CNC(=O)c2ccccc2F)CCCCC1	inactive: -2.42%
COc1cccc(C(=O)NCC2(N3CCOCC3)CCCCC2)c1	inactive: -18.5%
O=C(OC1CN2CCC1CC2)C(CO)(c1ccccc1)c1ccccc1 (stereo unspecified)	inactive: -11.7%
CC(C)COc1ccc(C(=O)NCC2(N(C)C)CCCCC2)cc1	inactive: -33.9%
C=C(C)C#CC(O)(C(=O)OC1CCN(C)CC1)c1ccccc1 (stereo unspecified)	inactive: -28.8%
COc1ccc(Br)c(C(=O)NCC2(N3CCCCC3)CCCCC2)c1	inactive: -24.9%
COc1cc(C(=O)NCC2(N(C)C)CCCCC2)cc(OC)c1OC	inactive: -29.6%
Cc1cccc(C(=O)NCC2(N(C)C)CCCCC2)c1	inactive: -17.4%
O=C(OCCN1CCCC1)C(O)(c1ccccc1)c1ccccc1	inactive: -39.5%
CC(C)Oc1ccc(C(=O)NCC2(N(C)C)CCCCC2)cc1	inactive: -1.75% and inactive: -20.6%
CN(C)c1cccc(C(=O)NCC2(N(C)C)CCCCC2)c1	inactive: -27.6%
CN(C)C1(CNC(=O)c2ccc(Br)cc2)CCCCC1	inactive: -0.772%
COc1cc(C(=O)NCC2(N(C)C)CCCCC2)c([N+](=O)[O-])cc1OC	inactive: -13.8%
COc1ccc(Cl)cc1C(=O)NCC1(N(C)C)CCCCC1	inactive: 11.7%
COc1cccc(C(=O)NCC2(N3CCCCC3)CCCCC2)c1	inactive: -17.2%
COc1ccc(C(=O)NCC2(N(C)C)CCCCC2)cc1Cl	inactive: -27.7%
O=C(NCC1(N2CCCCC2)CCCCC1)c1cccc(Cl)c1	inactive: -15.6%
